# Laboratory results: patent publication US20260355312A1, “COMBINED THERAPY DRUG COMPRISING ANTI-HER2 BISPECIFIC ANTIBODY AND USE THEREOF” (JIANGSU ALPHAMAB BIOPHARMACEUTICALS CO., LTD., priority 2023, published 2026)
# Tests used:
# [1] = tested on: domain IV of human HER2 protein; assay: Targeting of HER2 domain IV by Fab2 (heavy chain II); format: binding
# [2] = tested on: HER2-positive tumor cells; assay: In vitro anti-tumor cell proliferation experiments; format: cell-based
# [3] = tested on: HER2-positive tumor cells; assay: Antibody-dependent cell-mediated cytotoxicity; format: cell-based
substance,measurement,setting,value
"KN026: anti-HER2 bispecific antibody; common light chains SEQ ID NO: 5, heavy chain I SEQ ID NO: 10, heavy chain II SEQ ID NO: 15",targeting of domain IV of human HER2 protein; inhibition of HER2-related signaling,[1],targets domain IV of human HER2 protein to inhibit HER2-related signaling pathways
same,inhibition of tumor cell proliferation,[2],inhibits tumor cell proliferation in a dose-dependent manner
same,antibody-dependent cell-mediated cytotoxicity,[3],significant antibody-dependent cell-mediated cytotoxicity
